Where two headings read alike, the source gives them in different places.
How the values were obtained:
[1] = test system: TILN LAU 132 and TILN LAU 203; assay: 51Cr release antigen recognition assay, TILN LAU 132 and TILN LAU 203 (Example 14); type: cell-based, human; details: by the two TILN populations
Experimental: The derivatives described supra were then tested for their relative antigenic activity. In these experiments, two TILN populations, […] 132 and […] 203, preparation of which is described, supra, and a panel of ten different cytolytic T cell lines were tested. Of the ten CTLs, five were derived from infiltrating lymphocytes or tumor infiltrating lymph nodes, and five were from normal donor peripheral blood lymphocytes. […] Antigen recognition was assessed in a ^51Cr release assay. […] The ^51Cr was measured in supernatant, harvested after four hours of incubation at 37° C. Percent lysis was determined by subtracting spontaneously released ^51Cr from ^51Cr released with the tested, divided by a figure obtained by subtracting spontaneous release from total ^51Cr, and multiplying the resulting figure by 100. Titration was carried out over concentrations ranging from 10^-5 to 10^-13M.

[2] = test system: Melan-A monospecific CTL lines; assay: CTL assay, peptide titration on Melan-A monospecific CTL lines after tetramer-guided sorting; type: cell-based, human; details: for EC50: read-out: (A) Peptide [nM] 50%; for (B) Relative antigenic activity: relative to peptide 2
[3] = test system: panel of ten different cytolytic T cell lines; assay: 51Cr release antigen recognition assay, panel of ten cytolytic T cell lines (Example 14); type: cell-based, human; details: ten CTLs tested
[4] = test system: CTL clones from TILN LAU 203; assay: Antigen recognition assay, CTL clones derived from TILN LAU 203 by limiting dilution; type: cell-based, human
TILN LAU 132 = assay: 51Cr release assay, TILN recognition of peptide on T2 cells, TILN LAU 132; details: Table I
panel of 13 CTL clones = assay: 51Cr release assay, panel of 13 CTL clones specific for HLA-A*0201/SEQ ID NO: 2; type: cell-based, human
TILN LAU 203 = assay: 51Cr release assay, TILN recognition of peptide on T2 cells, TILN LAU 203; details: Table I
[5] = Culture stimulated with SEQ ID NO: 1
[6] = Culture stimulated with SEQ ID NO: 2
[7] = Culture stimulated with SEQ ID NO: 9
[8] = Culture stimulated with SEQ ID NO: 15
[9] = Culture stimulated with SEQ ID NO: 16
[10] = [nM]50% SEQ ID NO: 2 / [nM]50% test peptide
[11] = read-out: Peptide [nM] 50%, T2 targets, effector:target 30:1, concentration giving 50% of maximum activity

EC50 [2, 5] [nM]	EC50 [2, 6] [nM]	EC50 [2, 7] [nM]	EC50 [2, 8] [nM]	EC50 [2, 9] [nM]	EC50 (TILN LAU 132; [11]) [nM]	EC50 (TILN LAU 203; [11]) [nM]	Sequence	recognized better than SEQ ID NO: 1 [1]	(B) Relative antigenic activity [2, 5]	(B) Relative antigenic activity [2, 6]	(B) Relative antigenic activity [2, 7]	(B) Relative antigenic activity [2, 8]	(B) Relative antigenic activity [2, 9]	CTLs that recognized the peptide better than SEQ ID NO: 1 or 2 [3]	clones that recognized the peptide better than the comparison peptide(s) ([4]; 11 clones, better = relative antigenic activity at least 10 fold greater)	concentrations at which one of the clones recognized the peptide ([4]; one clone)	Relative activity (TILN LAU 132; [10])	recognition of peptide/HLA-A2 complexes by the CTLs (panel of 13 CTL clones)	Relative activity (TILN LAU 203; [10])
0.04	0.04	0.08	0.15	0.15	–	–	AAAGIGILTV [SEQ ID NO: 15]	20-60 fold	500	625	437	166	333	8 of 10	Nine CTLs	nanomolar concentrations	–	–	–
–	–	–	–	–	300	600	AAGIGILTVI [SEQ ID NO: 3, reference compound]	–	–	–	–	–	–	–	–	–	0.05	None of the CTLs recognized	0.06

— US7713714B2, “Isolated nona- and decapeptides which bind to HLA molecules, and the use thereof” (Ludwig Institute for Cancer Research, priority 1997, dated 2010)
